# Laboratory results from PubChem BioAssay AID588591 (National Center for Advancing Translational Sciences (NCATS), 2011).
# Protein sequences, listed by entry. Tags and fused reporters are not part of them.
# UniProt Q9Y253, whole entry: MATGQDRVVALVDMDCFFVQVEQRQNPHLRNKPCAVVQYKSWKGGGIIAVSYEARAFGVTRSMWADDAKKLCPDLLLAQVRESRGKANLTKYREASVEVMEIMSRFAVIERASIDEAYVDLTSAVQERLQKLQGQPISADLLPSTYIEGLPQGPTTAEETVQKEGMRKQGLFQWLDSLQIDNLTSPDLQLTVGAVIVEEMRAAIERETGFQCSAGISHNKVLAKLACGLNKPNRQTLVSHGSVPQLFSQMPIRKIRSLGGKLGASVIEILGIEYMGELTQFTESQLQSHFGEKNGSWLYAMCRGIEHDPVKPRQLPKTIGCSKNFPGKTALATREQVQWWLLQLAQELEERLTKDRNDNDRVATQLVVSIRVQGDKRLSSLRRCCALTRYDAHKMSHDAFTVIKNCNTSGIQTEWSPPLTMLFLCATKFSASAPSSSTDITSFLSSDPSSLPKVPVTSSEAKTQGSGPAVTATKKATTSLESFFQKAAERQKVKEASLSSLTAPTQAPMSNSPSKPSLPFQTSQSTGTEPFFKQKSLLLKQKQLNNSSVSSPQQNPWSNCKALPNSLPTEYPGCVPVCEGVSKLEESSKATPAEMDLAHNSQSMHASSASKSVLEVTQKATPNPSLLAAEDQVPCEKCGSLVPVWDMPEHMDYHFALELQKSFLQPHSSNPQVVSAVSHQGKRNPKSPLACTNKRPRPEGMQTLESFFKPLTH
# Values joined by “and” are separate entries in the source; they are usually repeats but may differ in a detail not shown here. Equal values may be shown once. Only a part is listed here, and it is no random draw. Some results for these compounds are left out of this collection, so the calls shown say nothing about other tests. Inconclusive results are not listed. Active and inactive are the calls of the source. Calls come from the whole dose curve; as a rule, active = well fitted inhibition curve with a large enough effect; inconclusive = small, poorly fitted or top-dose-only effect, or another doubt; inactive = no such curve, though single readings can be large or run the other way.
# Biological target: DNA polymerase eta (Homo sapiens) (UniProt Q9Y253)
# Test: qHTS for Inhibitors of Polymerase Eta
# Details: recombinant Pol eta, fluorescent DNA replication assay; at 114 µM (top of the series)
# % is set by controls: 0 for no effect and ±100 for the full control effect.
row,SMILES,"activity change, negative = inhibition"
1,COc1ccc(Br)c(C(=O)NCC2(N3CCCCC3)CCCCC2)c1,inactive: 1.05%
2,COc1cc(C(=O)NCC2(N(C)C)CCCCC2)cc(OC)c1OC,inactive: -16.1%
3,Cc1cccc(C(=O)NCC2(N(C)C)CCCCC2)c1,inactive: -16.3%
4,C=C(C)C#CC(O)(C(=O)OC1CCN(C)CC1)c1ccccc1 (stereo unspecified),inactive: -3.71%
5,CN(C)c1cccc(C(=O)NCC2(N(C)C)CCCCC2)c1,inactive: -8.22%
6,O=C(OCCN1CCCC1)C(O)(c1ccccc1)c1ccccc1,inactive: -14.5%
7,CC(C)Oc1ccc(C(=O)NCC2(N(C)C)CCCCC2)cc1,inactive: -3.84% and inactive: -8.32%
8,O=C(OC1CN2CCC1CC2)C(CO)(c1ccccc1)c1ccccc1 (stereo unspecified),inactive: -1.79%
9,COc1cccc(C(=O)NCC2(N3CCOCC3)CCCCC2)c1,inactive: -3.28%
10,CC(C)COc1ccc(C(=O)NCC2(N(C)C)CCCCC2)cc1,inactive: -3.93%
11,COc1ccc(C(=O)NCC2(N(C)C)CCCCC2)cc1Cl,inactive: -5.22%
12,COc1ccc(Cl)cc1C(=O)NCC1(N(C)C)CCCCC1,inactive: -5.05%
13,COc1cccc(C(=O)NCC2(N3CCCCC3)CCCCC2)c1,inactive: -14.7%
14,O=C(NCC1(N2CCCCC2)CCCCC1)c1cccc(Cl)c1,inactive: 2.18%
15,CN(C)C1(CNC(=O)c2ccc(Br)cc2)CCCCC1,inactive: -8.74%
16,COc1cc(C(=O)NCC2(N(C)C)CCCCC2)c([N+](=O)[O-])cc1OC,inactive: -3.19%
17,O=C(NCC1(N2CCCCC2)CCCCC1)c1cc(F)c(F)cc1Cl,inactive: -24.2%
18,C=CCN1CCN(CCOC(=O)C(O)(c2ccccc2)c2ccccc2)CC1,inactive: -5.9%

row,SMILES,"activity change, negative = inhibition"
1,O=C(NCC1(N2CCCCC2)CCCCC1)c1cccc(Br)c1,inactive: -12.9%
2,Cc1cc(C(=O)NCC2(N3CCCCC3)CCCCC2)ccc1[N+](=O)[O-],inactive: -11.4%
3,CCN1CCCC(OC(=O)C2(O)c3ccccc3C=Cc3ccccc32)C1 (stereo unspecified),inactive: -4.16%
4,CCOc1cccc(C(=O)NCC2(N(C)C)CCCCC2)c1,inactive: 3.84%
5,COc1ccc(C(=O)NCC2(N(C)C)CCCCC2)cc1,inactive: -3.85%
6,CN(C)C1CCCC1OC(=O)C(O)(c1ccccc1)c1ccccc1 (stereo unspecified),inactive: -16.2%
7,CN(C)c1ccc(C(=O)NCC2(N(C)C)CCCCC2)cc1,inactive: 0.571%
8,CN(C)C1(CNC(=O)c2ccccc2[N+](=O)[O-])CCCCC1,inactive: 0.731%
9,Cc1ccccc1C(=O)NCC1(N2CCCCC2)CCCCC1,inactive: -4.6%
10,CCCCOc1ccccc1C(=O)NCC1(N(C)C)CCCCC1,inactive: -10.9%
11,CC(C)N1C(=O)CC2(CCN(CCOC(=O)C(O)(c3ccccc3)c3ccccc3)CC2)C1=O,inactive: -17.1%
12,COc1cc(SC)ccc1C(=O)NCC1(N(C)C)CCCCC1,inactive: -4.45%
13,CCN(CC)CC(C)C(C)OC(=O)C(O)(c1ccccc1)c1ccccc1 (stereo unspecified),inactive: -1.53%
14,CN(C)C1(CNC(=O)c2cccc(Cl)c2)CCCCC1,inactive: 1.93%
15,CN(C)C1(CNC(=O)c2ccccc2F)CCCCC1,inactive: -10.4%
16,Cc1ccc(C(=O)NCC2(N3CCCCC3)CCCCC2)cc1,inactive: 17.3%
17,O=C(NCC1(N2CCCCC2)CCCCC1)c1cc([N+](=O)[O-])ccc1Cl,inactive: -20.9%
18,CN1[C@@H]2CC[C@H]1CC(OC(=O)C(O)(c1ccccc1)c1ccccc1)C2 (stereo partly specified),inactive: 0.114%
